Data on one molecule can be found in PubChem BioAssay AID463212 (Sanford-Burnham Center for Chemical Genomics, 2010).

This is a selection; strong and weak results do not stand in their true shares. Calls of active or inactive are those of the source.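 The calls were made as follows: active = growth inhibition of the mutant yeast at or above 50%; inactive = the rest.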

This experiment can be described thus: growth inhibitors of tim23-1 mutant yeast, primary screen, luminescence, uHTS (AID 463212).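 Also: temperature-sensitive mutant grown at 25 °C; plate controls were DMSO-treated mutant yeast for no effect and medium wells lacking yeast for full effect.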 Particulars: S. cerevisiae tim23-1 growth, BacTiter-Glo luminescence, 24 h; at 20 µM; stronger effect = higher value.
One may read the inhibition as the change of the read-out against control, counted positive when it falls. On to `COc1ccc(OP(C)(=O)Nc2ccccn2)cc1` (stereo unspecified), for which the inhibition is inactive: 8.04%.
